Test results as given in patent publication US10196631B2, “Cell separation method using a release system for cell-antibody-substrate conjugates containing a polyethylene glycol spacer unit” (dated 2019).

Tests used:
CD8 positive cells [1] = conditions: compound 12 with APC-streptavidin, 10 min (FIG. 9)
CD8 positive cells [2] = conditions: compound 12 at 100 mM with streptavidin, 10 min (FIG. 5)
CD8 positive cells [3] = conditions: compound 12 with APC-streptavidin, 10 min (FIG. 6)
[4] = tested on: anti-CD8-PEO-Biotin/anti-Biotin-PE system; assay: Dissociation of the anti-CD8-PEO-Biotin/anti-Biotin-PE system by compounds 10, 12 and 15, flow cytometry; conditions: different concentrations, room temperature, 10 min incubation (FIG. 4)
CD8 positive cells [5] = conditions: compound 12 with streptavidin, 10 min (FIG. 8)

[N-]=[N+]=NCC(N)=O
effect of auxiliary release agent added to APC-streptavidin on dissociation of the CD8-PEO-Biotin/anti-Biotin-MicroBead system (CD8 positive cells [1]): further improves the dissociation
effect of auxiliary release agent on streptavidin-mediated dissociation (CD8 positive cells [2]): accelerates the streptavidin-mediated dissociation process
effect of auxiliary release agent on APC-streptavidin-mediated dissociation (CD8 positive cells [3]): accelerates the APC-streptavidin-mediated dissociation process
dissociation of the anti-CD8-PEO-Biotin/anti-Biotin-PE system by auxiliary release agent [4]: highly facilitate the dissociation
effect of auxiliary release agent added to streptavidin on dissociation of the CD8-PEO-Biotin/anti-Biotin-MicroBead system (CD8 positive cells [5]): further improves the dissociation
